Molecular target: Ba/F3 cell line expressing TYK2 (Homo sapiens, UniProt P29597, cells depend on it, form not given)
Assay: In vitro cellular inhibition assay (Ba/F3 cell proliferation, CellTiter-Glo)
Conditions: read-out: IC50

Protein sequences, listed by entry. Tags and fused reporters are not part of them.
UniProt P29597, whole entry: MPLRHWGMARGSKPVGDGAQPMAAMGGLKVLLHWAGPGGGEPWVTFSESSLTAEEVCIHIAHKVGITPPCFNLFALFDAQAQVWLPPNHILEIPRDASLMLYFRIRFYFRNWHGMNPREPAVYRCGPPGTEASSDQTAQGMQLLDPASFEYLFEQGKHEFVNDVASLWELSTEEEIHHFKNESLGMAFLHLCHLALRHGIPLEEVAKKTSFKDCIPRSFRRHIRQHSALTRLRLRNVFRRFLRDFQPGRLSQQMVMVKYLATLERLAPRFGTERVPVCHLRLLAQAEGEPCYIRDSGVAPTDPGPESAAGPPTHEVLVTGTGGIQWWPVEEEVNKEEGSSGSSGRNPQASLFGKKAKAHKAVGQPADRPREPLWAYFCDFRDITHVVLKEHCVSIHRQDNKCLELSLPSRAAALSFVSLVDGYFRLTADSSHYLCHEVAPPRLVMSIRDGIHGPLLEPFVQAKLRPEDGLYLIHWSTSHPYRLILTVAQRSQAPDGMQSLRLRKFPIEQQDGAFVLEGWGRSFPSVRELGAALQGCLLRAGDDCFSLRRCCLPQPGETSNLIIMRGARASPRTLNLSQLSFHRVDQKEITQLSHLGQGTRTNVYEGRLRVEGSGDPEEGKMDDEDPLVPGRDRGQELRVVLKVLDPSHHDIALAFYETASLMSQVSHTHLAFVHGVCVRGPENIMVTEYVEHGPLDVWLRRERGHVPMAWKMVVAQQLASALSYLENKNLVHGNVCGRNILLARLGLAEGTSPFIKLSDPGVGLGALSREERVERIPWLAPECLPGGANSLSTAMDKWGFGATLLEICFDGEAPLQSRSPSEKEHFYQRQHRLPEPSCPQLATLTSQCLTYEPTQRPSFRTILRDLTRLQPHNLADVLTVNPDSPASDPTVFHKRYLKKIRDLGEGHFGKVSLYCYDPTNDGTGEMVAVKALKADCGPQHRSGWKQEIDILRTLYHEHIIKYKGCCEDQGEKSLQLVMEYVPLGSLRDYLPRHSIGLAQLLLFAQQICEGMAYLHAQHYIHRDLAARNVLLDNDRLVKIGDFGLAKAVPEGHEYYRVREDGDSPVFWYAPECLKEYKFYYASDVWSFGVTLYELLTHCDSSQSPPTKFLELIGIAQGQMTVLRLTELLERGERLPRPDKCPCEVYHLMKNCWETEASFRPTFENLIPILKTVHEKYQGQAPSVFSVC

| GI50 [nM] | SMILES |
| --- | --- |
| 5 to 10 | [2H]C([2H])([2H])NC(=O)c1nnc(NC(=O)C2CC2)cc1Nc1cccc(C(=O)Nc2ccc(F)cn2)c1OC |
| 5 to 10 | [2H]C([2H])([2H])NC(=O)c1cnc(NC(=O)C2CC2)cc1Nc1cccc(C(=O)Nc2ccc(C)nc2)c1OC |
